According to US11427783B2, “Perfuming compositions” (Firmenich SA, priority 2016, dated 2022):

Assay: physchem

COC(=O)Cc1ccccc1 [METHYL PHENYLACETATE]
logP: 1.98
